Binding of CDR-mutated scFvs to a peptide of the spike HR2 region

Data: MIT Lincoln Laboratory AlphaSeq set, Engelhart et al. 2022, doi:10.1038/s41597-022-01779-4, as distributed in FLAb.

All variants were tested on one target, the spike HR2 peptide PDVDLGDISGINAS (SARS-CoV-2).

Parent: Ab-14, a human scFv built as VH, the linker GGGGSGGGGSGGGGS, VL. Only the CDRs of the heavy chain vary.
VH: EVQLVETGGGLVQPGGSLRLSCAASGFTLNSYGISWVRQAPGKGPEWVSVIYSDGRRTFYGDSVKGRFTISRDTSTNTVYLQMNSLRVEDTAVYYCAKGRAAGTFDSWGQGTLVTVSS
VL: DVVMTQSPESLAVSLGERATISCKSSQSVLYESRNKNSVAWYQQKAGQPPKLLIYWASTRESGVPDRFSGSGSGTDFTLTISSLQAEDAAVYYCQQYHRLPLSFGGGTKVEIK

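Variants in AAYL49 differ from the parent at up to three CDR positions; double and triple changes were sampled at random. In AlphaSeq, yeast of one mating type display the scFv and yeast of the other type display the target. After mating in shaken culture at 30 °C for 16 h, diploids were selected and their barcode pairs sequenced. The ratio of observed to expected reads was calibrated, replicate by replicate, on BCL2-family standards whose Kd was known from biolayer interferometry. Each pool was mated in three replicate cultures.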

Positions count from residue 1 of the parent VH; N30E puts E in place of N.
Affinities are written as log10 Kd with Kd in nM; a lower number is a better binder.
Replicates are averaged; those with no signal do not enter the mean.
An entry "n.d." has no value in the source: the pair was not observed among the diploids in that replicate. This suggests poor binding but is not conclusive.
Parent in this assay: reference entry 0.65, copy in this library 4.11 (one replicate of three).
Three control strains display no target. For library AAYL49, 15% of the pairings with them gave a signal, with a median of 4.06 and one signal in twenty below 2.83, so weak values seen in few replicates may be background. For each scFv, signals with the empty controls are counted beside the result, with their mean in brackets.

| changes | log10 Kd, replicates | log10 Kd (nM), mean | control signals |
|---|---|---|---|
| N30E+G61P+F105Y | 1.12 1.20 1.53 | 1.28 | 0/9 |
| G33Y+F59T+S63A | 3.46 n.d. 4.08 | 3.77 | 2/9 (4.63) |
| T28D+N30I+G103Y | 2.84 2.45 2.56 | 2.62 | 1/9 (4.24) |
| N30D+R100D+T104P | n.d. 4.02 5.92 | 4.97 | 7/9 (4.21) |
| R56I+Y60M+S107G | 3.51 3.09 3.55 | 3.38 | 6/9 (4.59) |
| V50R+D54A+R56P | n.d. n.d. n.d. | n.d. | 0/9 |
| F27Y+S53A+F105Q | 1.82 1.89 1.42 | 1.71 | 1/9 (3.32) |
| I34D+V64H+G103C | n.d. n.d. n.d. | n.d. | 2/9 (3.66) |
| L29N+N30F+F105Y | n.d. 3.61 n.d. | 3.61 | 1/9 (4.72) |
| T28D+Y52H+T58M | 1.40 1.59 1.43 | 1.48 | 1/9 (3.28) |
| R57V+T58I | n.d. n.d. 3.63 | 3.63 | 2/9 (4.17) |
| Y32L+A102N | n.d. n.d. n.d. | n.d. | 2/9 (4.07) |
| G61P | 1.66 1.68 1.68 | 1.67 | 4/9 (4.18) |
| T58R+A102S+D106R | n.d. n.d. n.d. | n.d. | 0/9 |
| T28L+D54I+R57T | 3.79 n.d. n.d. | 3.79 | 1/9 (2.99) |
| T28A+G33E+I34D | 3.29 n.d. 4.03 | 3.66 | 2/9 (4.06) |
| F27I+T28L+G99E | n.d. n.d. n.d. | n.d. | 0/9 |
| T28P+I34L+V64T | n.d. n.d. n.d. | n.d. | 0/9 |
| S31R+V50P+D62W | n.d. 4.87 n.d. | 4.87 | 1/9 (3.08) |
| S35G+G55E+G103H | n.d. n.d. n.d. | n.d. | 0/9 |
| G26A+F27S+I51P | n.d. 4.24 4.33 | 4.28 | 6/9 (4.50) |
| S35R+V64A+A102N | n.d. n.d. n.d. | n.d. | 2/9 (4.51) |
| S35Y+V50Q+G99Y | n.d. 4.17 n.d. | 4.17 | 3/9 (4.45) |
| F27W+Y32P+F105Y | 4.40 5.06 3.84 | 4.43 | 1/9 (3.76) |
| F27C+R56S+G61N | n.d. n.d. n.d. | n.d. | 1/9 (3.06) |
| F27P+G99N+S107P | n.d. 3.43 n.d. | 3.43 | 4/9 (4.34) |
| F27R+A102H+F105A | 2.84 3.27 2.77 | 2.96 | 4/9 (4.46) |
| T28R+Y60S+F105E | n.d. n.d. n.d. | n.d. | 0/9 |
| F27C+T28K+L29Q | 3.39 n.d. 3.93 | 3.66 | 0/9 |
| K65M | 2.13 2.06 2.41 | 2.20 | 6/9 (4.37) |
| V50H+R57V+V64D | n.d. n.d. n.d. | n.d. | 1/9 (2.68) |
| I34F+T104E+S107F | n.d. n.d. n.d. | n.d. | 0/9 |
| Y60W+R100K+S107Y | n.d. n.d. n.d. | n.d. | 5/9 (3.32) |
| L29K+N30C+D54A | n.d. n.d. n.d. | n.d. | 0/9 |
| D54N+R100M+T104I | 3.47 3.60 n.d. | 3.54 | 1/9 (3.63) |
| T58Y+F59D+D106Q | n.d. 3.95 3.56 | 3.75 | 1/9 (4.30) |
| V50T+G55S+S63H | n.d. 3.29 n.d. | 3.29 | 0/9 |
| V50E+Y60L+A101N | 5.63 n.d. n.d. | 5.63 | 2/9 (3.77) |
| Y32C+R56F+D106H | 4.79 4.10 4.15 | 4.35 | 3/9 (4.02) |
| S31G+S53E | 4.17 n.d. n.d. | 4.17 | 1/9 (2.70) |
| I34E+T58I+D106R | n.d. n.d. n.d. | n.d. | 1/9 (3.16) |
| L29F+R100H+G103Q | 3.60 2.73 3.05 | 3.13 | 1/9 (3.27) |

The last 7 entries again:

changes,"log10 Kd, replicates","log10 Kd (nM), mean",control signals
T58Y+F59D+D106Q,n.d. 3.95 3.56,3.75,1/9 (4.30)
V50T+G55S+S63H,n.d. 3.29 n.d.,3.29,0/9
V50E+Y60L+A101N,5.63 n.d. n.d.,5.63,2/9 (3.77)
Y32C+R56F+D106H,4.79 4.10 4.15,4.35,3/9 (4.02)
S31G+S53E,4.17 n.d. n.d.,4.17,1/9 (2.70)
I34E+T58I+D106R,n.d. n.d. n.d.,n.d.,1/9 (3.16)
L29F+R100H+G103Q,3.60 2.73 3.05,3.13,1/9 (3.27)